From PubChem BioAssay (NCI)
Some of these compounds have results that are not shown, active ones among them.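 48-hour exposure; five concentrations; linearly interpolated endpoints. GI50 marks 50% less growth. The concentration for full growth arrest is given as TGI.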

Columns and labels:
Assay in all cases: NCI-60 cell line screen, 48 h
786-0 renal = tested on: 786-0 renal
A498 renal = tested on: A498 renal
A549 NSCLC = tested on: A549 NSCLC
ACHN renal = tested on: ACHN renal
BT-549 breast = tested on: BT-549 breast
CAKI-1 renal = tested on: CAKI-1 renal
CCRF-CEM leukemia = tested on: CCRF-CEM leukemia
COLO 205 colon = tested on: COLO 205 colon
DU-145 prostate = tested on: DU-145 prostate
EKVX NSCLC = tested on: EKVX NSCLC
HCT-116 colon = tested on: HCT-116 colon
HCT-15 colon = tested on: HCT-15 colon
HL-60(TB) leukemia = tested on: HL-60(TB) leukemia
HOP-62 NSCLC = tested on: HOP-62 NSCLC
HOP-92 NSCLC = tested on: HOP-92 NSCLC
HS 578T breast = tested on: HS 578T breast
HT29 colon = tested on: HT29 colon
IGROV1 ovarian = tested on: IGROV1 ovarian
K-562 leukemia = tested on: K-562 leukemia
LOX IMVI melanoma = tested on: LOX IMVI melanoma
M14 melanoma = tested on: M14 melanoma
MALME-3M melanoma = tested on: MALME-3M melanoma
MCF7 breast = tested on: MCF7 breast
MDA-MB-231 breast = tested on: MDA-MB-231 breast
MDA-MB-435 = tested on: MDA-MB-435
MDA-N = tested on: MDA-N
MOLT-4 leukemia = tested on: MOLT-4 leukemia
NCI-H226 lung = tested on: NCI-H226 lung
NCI-H23 lung = tested on: NCI-H23 lung
NCI-H322M lung = tested on: NCI-H322M lung
NCI-H522 lung = tested on: NCI-H522 lung
NCI/ADR-RES ovarian = tested on: NCI/ADR-RES ovarian
OVCAR-3 ovarian = tested on: OVCAR-3 ovarian
OVCAR-4 ovarian = tested on: OVCAR-4 ovarian
OVCAR-5 ovarian = tested on: OVCAR-5 ovarian
OVCAR-8 ovarian = tested on: OVCAR-8 ovarian
PC-3 prostate = tested on: PC-3 prostate
RPMI-8226 leukemia = tested on: RPMI-8226 leukemia
RXF 393 renal = tested on: RXF 393 renal
SF-268 CNS = tested on: SF-268 CNS
SF-295 CNS = tested on: SF-295 CNS
SF-539 CNS = tested on: SF-539 CNS
SK-MEL-2 melanoma = tested on: SK-MEL-2 melanoma
SK-MEL-28 melanoma = tested on: SK-MEL-28 melanoma
SK-MEL-5 melanoma = tested on: SK-MEL-5 melanoma
SK-OV-3 ovarian = tested on: SK-OV-3 ovarian
SN12C renal = tested on: SN12C renal
SNB-19 CNS = tested on: SNB-19 CNS
SNB-75 CNS = tested on: SNB-75 CNS
SR leukemia = tested on: SR leukemia
T-47D breast = tested on: T-47D breast
TK-10 renal = tested on: TK-10 renal
U251 CNS = tested on: U251 CNS
UACC-257 melanoma = tested on: UACC-257 melanoma
UACC-62 melanoma = tested on: UACC-62 melanoma
UO-31 renal = tested on: UO-31 renal

Structure (SMILES): CN1CCCC(OC(=O)C(O)(C#Cc2ccccc2)c2ccccc2)C1 (configuration not stated)
- GI50 (786-0 renal): > 100 µM
- TGI (786-0 renal): > 100 µM
- GI50 (A498 renal): > 100 µM
- TGI (A498 renal): > 100 µM
- GI50 (A549 NSCLC): > 100 µM
- TGI (A549 NSCLC): > 100 µM
- GI50 (ACHN renal): > 100 µM
- TGI (ACHN renal): > 100 µM
- GI50 (BT-549 breast): > 100 µM
- TGI (BT-549 breast): > 100 µM
- GI50 (CAKI-1 renal): > 100 µM
- TGI (CAKI-1 renal): > 100 µM
- GI50 (CCRF-CEM leukemia): > 100 µM
- TGI (CCRF-CEM leukemia): > 100 µM
- GI50 (COLO 205 colon): > 100 µM
- TGI (COLO 205 colon): > 100 µM
- GI50 (DU-145 prostate): > 100 µM
- TGI (DU-145 prostate): > 100 µM
- GI50 (EKVX NSCLC): > 100 µM
- TGI (EKVX NSCLC): > 100 µM
- GI50 (HCT-116 colon): > 100 µM
- TGI (HCT-116 colon): > 100 µM
- GI50 (HCT-15 colon): > 100 µM
- TGI (HCT-15 colon): > 100 µM
- GI50 (HL-60(TB) leukemia): > 100 µM
- TGI (HL-60(TB) leukemia): > 100 µM
- GI50 (HOP-62 NSCLC): > 100 µM
- TGI (HOP-62 NSCLC): > 100 µM
- GI50 (HOP-92 NSCLC): > 100 µM
- TGI (HOP-92 NSCLC): > 100 µM
- GI50 (HS 578T breast): > 100 µM
- TGI (HS 578T breast): > 100 µM
- GI50 (HT29 colon): > 100 µM
- TGI (HT29 colon): > 100 µM
- GI50 (IGROV1 ovarian): > 100 µM
- TGI (IGROV1 ovarian): > 100 µM
- GI50 (K-562 leukemia): > 100 µM
- TGI (K-562 leukemia): > 100 µM
- GI50 (LOX IMVI melanoma): > 100 µM
- TGI (LOX IMVI melanoma): > 100 µM
- GI50 (M14 melanoma): > 100 µM
- TGI (M14 melanoma): > 100 µM
- GI50 (MALME-3M melanoma): > 100 µM
- TGI (MALME-3M melanoma): > 100 µM
- GI50 (MCF7 breast): > 100 µM
- TGI (MCF7 breast): > 100 µM
- GI50 (MDA-MB-231 breast): > 100 µM
- TGI (MDA-MB-231 breast): > 100 µM
- GI50 (MDA-MB-435): > 100 µM
- TGI (MDA-MB-435): > 100 µM
- GI50 (MDA-N): > 100 µM
- TGI (MDA-N): > 100 µM
- GI50 (MOLT-4 leukemia): > 100 µM
- TGI (MOLT-4 leukemia): > 100 µM
- GI50 (NCI-H226 lung): > 100 µM
- TGI (NCI-H226 lung): > 100 µM
- GI50 (NCI-H23 lung): > 100 µM
- TGI (NCI-H23 lung): > 100 µM
- GI50 (NCI-H322M lung): > 100 µM
- TGI (NCI-H322M lung): > 100 µM
- GI50 (NCI-H522 lung): > 100 µM
- TGI (NCI-H522 lung): > 100 µM
- GI50 (NCI/ADR-RES ovarian): > 100 µM
- TGI (NCI/ADR-RES ovarian): > 100 µM
- GI50 (OVCAR-3 ovarian): > 100 µM
- TGI (OVCAR-3 ovarian): > 100 µM
- GI50 (OVCAR-4 ovarian): > 100 µM
- TGI (OVCAR-4 ovarian): > 100 µM
- GI50 (OVCAR-5 ovarian): > 100 µM
- TGI (OVCAR-5 ovarian): > 100 µM
- GI50 (OVCAR-8 ovarian): > 100 µM
- TGI (OVCAR-8 ovarian): > 100 µM
- GI50 (PC-3 prostate): > 100 µM
- TGI (PC-3 prostate): > 100 µM
- GI50 (RPMI-8226 leukemia): > 100 µM
- TGI (RPMI-8226 leukemia): > 100 µM
- GI50 (RXF 393 renal): > 100 µM
- TGI (RXF 393 renal): > 100 µM
- GI50 (SF-268 CNS): > 100 µM
- TGI (SF-268 CNS): > 100 µM
- GI50 (SF-295 CNS): > 100 µM
- TGI (SF-295 CNS): > 100 µM
- GI50 (SF-539 CNS): > 100 µM
- TGI (SF-539 CNS): > 100 µM
- GI50 (SK-MEL-2 melanoma): > 100 µM
- TGI (SK-MEL-2 melanoma): > 100 µM
- GI50 (SK-MEL-28 melanoma): > 100 µM
- TGI (SK-MEL-28 melanoma): > 100 µM
- GI50 (SK-MEL-5 melanoma): > 100 µM
- TGI (SK-MEL-5 melanoma): > 100 µM
- GI50 (SK-OV-3 ovarian): > 100 µM
- TGI (SK-OV-3 ovarian): > 100 µM
- GI50 (SN12C renal): > 100 µM
- TGI (SN12C renal): > 100 µM
- GI50 (SNB-19 CNS): > 100 µM
- TGI (SNB-19 CNS): > 100 µM
- GI50 (SNB-75 CNS): > 100 µM
- TGI (SNB-75 CNS): > 100 µM
- GI50 (SR leukemia): 51.1 µM
- TGI (SR leukemia): > 100 µM
- GI50 (T-47D breast): > 100 µM
- TGI (T-47D breast): > 100 µM
- GI50 (TK-10 renal): > 100 µM
- TGI (TK-10 renal): > 100 µM
- GI50 (U251 CNS): > 100 µM
- TGI (U251 CNS): > 100 µM
- GI50 (UACC-257 melanoma): > 100 µM
- TGI (UACC-257 melanoma): > 100 µM
- GI50 (UACC-62 melanoma): > 100 µM
- TGI (UACC-62 melanoma): > 100 µM
- GI50 (UO-31 renal): > 100 µM
- TGI (UO-31 renal): > 100 µM
